Among the data in ChEMBL document CHEMBL1649095, “A κ Opioid Pharmacophore Becomes a Spinally Selective κ-δ Agonist When Modified with a Basic Extender Arm” (2011) are ED50 and Ratio ED50 values, retold here.

Test [1] concerns Mus musculus. Nature of the test: Antinociceptive activity in intrathecally dosed HSD:ICR(CD1) mouse by tail flick test. Conditions: strain HSD:ICR(CD1). For orientation: Thermal pain tests record how soon the animal reacts.
For test [2], the system named is Mus musculus. Nature of the test: Potency index, ratio of antinociceptive ED50 in icv dosed HSD:ICR(CD1) mouse to antinociceptive ED50 in intrathecally dosed HSD:ICR(CD1) mouse.
The test system of test [3] is Mus musculus. Description: Antinociceptive activity in icv dosed HSD:ICR(CD1) mouse by tail flick test. Type of test: functional. The conditions noted are these: strain HSD:ICR(CD1).

`CN(C(=O)Cc1ccc(Cl)c(Cl)c1)[C@H](CN1CCCC1)c1ccccc1`: the ED50 with Mus musculus [1] was found to be 0.55 nmol; with Mus musculus [3], 0.58 nmol. In addition, the Ratio ED50 with Mus musculus [2] turned out to be 1.05.
